The values below come from patent US9309314B2, “Polypeptides, nucleic acids and uses thereof” (AGENCY FOR SCIENCE, TECHNOLOGY AND RESEARCH (A*STAR), priority 2013, dated 2016).

For this assay, the system named is hESCs. The assay can be described thus: hESC growth assays (cell counts, colony size, xCELLigence real time cell index). The class given is cell-based, human. The method, then: Feeder-free hESCs were cultured in clumps in mTSER1 (Stem Cell Technologies) on Matrigel (BD 354277).
hESCs were dissociated into single cells using Accutase (Stem Cell Technologies) and plated in the presence of 10 μM Y-27632 (ROCK inhibitor) for 12 hours (Watanabe et al., 2007).
For xCELLigence real time growth assays, 4000 cells were plated per well of an E-plate (ACEA Biosciences) with media changes every 48 hours.
Recombinant ELA was added at 2.5 uM (or 10 μg/ml). Cell cycle studies were performed with Click-iT EDU staining kit (Invitrogen) and by performing a double thymidine block (2.5 mM thymidine; 16 hour block, 8 hour release, 16 hour block) followed by DAPI staining for DNA content at the indicated times following release.

“Also recorded” adds a separate entry of the source.

Turning to “QRPVNLTMRRKLRKHNCLQRRCMPLHSRVPFP (listed as Homo sapiens) [ELA, synthetically produced recombinant mature human ELABELA, a 32 amino-acid peptide hormone]”, the “growth of hESCs by real-time cell index analysis” value (FIG. 3E, FIG. 11A, exogenous peptide) is listed as “increased growth; also recorded: Dose-dependent response”. Also, the “growth of hESCs relative to untreated cells” value (hESCs pulsed with peptide, documented by cell counts, colony size and real-time cell indices) is given as “dose-dependent enhanced growth”.
